Reference: PMC7456963, “HPLC-Based Activity Profiling for Antiprotozoal Compounds in Croton gratissimus and Cuscuta hyalina” (Frontiers in Pharmacology, 2020)

Columns and labels:
[1] = tested on: L-6 cells (rat skeletal myoblasts); test: In vitro cytotoxicity with L-6 cells (resazurin); type: cell-based; conditions: L6 cells, 70 h + 2 h resazurin; mean ± absolute deviation
Experimental: Assays were performed in 96-well microtiter plates, each well containing 100 µl of RPMI 1640 medium supplemented with 1% L-glutamine (200 mM) and 10% fetal bovine serum, and 4000 L-6 cells (a primary cell line derived from rat skeletal myoblasts) ([Ahmed et al., 1994]). Serial drug dilutions of 11 three-fold dilution steps covering a range from 100 to 0.002 μg/ml were prepared 24 h post seeding L-6 cells. The plates were incubated for 70 h and inspected under an inverted microscope to assure growth of the controls and sterile conditions. 10 µl of resazurin was then added to each well and the plates incubated for another 2 h. Then the plates were read with a Spectramax Gemini XS microplate fluorometer (Molecular Devices Cooperation, Sunnyvale, CA, USA) using an excitation wavelength of 536 nm and an emission wavelength of 588 nm. The IC50 values were calculated by linear regression and four-parameter logistic regression from the sigmoidal dose inhibition curves using SoftmaxPro software (Molecular Devices Cooperation, Sunnyvale, CA, USA). Podophyllotoxin (Sigma P4405) was used as positive control. All assays were performed in two independent replicates at least. Activities of all compounds were expressed in µM using the formula: […]

[2] = tested on: mouse peritoneal macrophages; test: Cytotoxicity to macrophages determined in parallel to the intramacrophage assay; type: cell-based; conditions: surviving, uninfected mouse peritoneal macrophages, 96 h
Experimental: Macrophages were isolated from the mouse (CDI) peritoneal cavity ([Zhang et al., 2008]) using 2% starch solution as eliciting agent injected 2 day prior to cell harvest. Animal work was carried out according to the rules and regulations for the protection of animal rights (“Tierschutzverordnung”) of the Swiss “Bundesamt für Veterinärwesen” (License number 2374). Mouse peritoneal macrophages (4 × 10^4 in 100 µL RPMI 1640 medium with 10% heat-inactivated FBS) were seeded into wells of a 96-well plate. After 24 h, 2 × 10^5 amastigote L. donovani in 100 µL were added. The amastigotes were taken from an axenic amastigote culture grown at pH 5.4. The medium containing free amastigote forms was removed after 24 h and replaced with fresh medium. The washing step was repeated and afterward the serial drug dilution was prepared with at least 6 dilution steps. Compounds were dissolved in DMSO at 10 mg/ml and further diluted in medium. After 96 h of incubation at 37°C under a 5% CO2 atmosphere, the medium was removed, and cells were fixed by adding 50 µl 4% formaldehyde solution followed by a staining with a 5 µM DRAQ5 solution. […] The IC50 values were calculated based on the infection rate and the numbers of intracellular amastigotes. The cytotoxicity to macrophages was determined in parallel, and IC50 values were calculated based on the numbers of surviving, uninfected macrophages. […]

## (+)-(7S,7′S,8R,8′R)-Pinoresinol [Compound 10]
[1]
  IC50: 242 ± 21.2 µM
[2]
  IC50: > 270 µM
